Reference: the supplement of paper PMC10702517

Assay: chemical recovery from spiked human plasma; higher = better extraction
Settings: pooled human plasma
[1] = extraction method: SPE only (HLB 96-well)
[2] = extraction method: solvent precipitation (ACN + hexane)

## CCOP(=S)(OCC)Oc1ncn(-c2ccccc2)n1 [Triazophos]
[1]
  chemical recovery: 33.7 ± 1.6%
[2]
  chemical recovery: 67.2 ± 2.5%

## CCC[N+](CCC)(CCC)CCC [Tetrapropylammonium]
Extraction method: PES+SPE (3 d PDMS equilibration then HLB SPE)
  chemical recovery: 28.4 ± 5.6%
[1]
  chemical recovery: 23.8 ± 7%
Extraction method: SPE only (HLB 96-well), PES comparison experiment
  chemical recovery: 34.3 ± 11%
[2]
  chemical recovery: 78.6 ± 4.2%

± gives the standard deviation.
